# Test results as given in PubChem BioAssay AID488896 (Broad Institute, 2010).
# The chains behind the UniProt entries cited, without tags or fusion partners.
# UniProt Q61009, whole entry: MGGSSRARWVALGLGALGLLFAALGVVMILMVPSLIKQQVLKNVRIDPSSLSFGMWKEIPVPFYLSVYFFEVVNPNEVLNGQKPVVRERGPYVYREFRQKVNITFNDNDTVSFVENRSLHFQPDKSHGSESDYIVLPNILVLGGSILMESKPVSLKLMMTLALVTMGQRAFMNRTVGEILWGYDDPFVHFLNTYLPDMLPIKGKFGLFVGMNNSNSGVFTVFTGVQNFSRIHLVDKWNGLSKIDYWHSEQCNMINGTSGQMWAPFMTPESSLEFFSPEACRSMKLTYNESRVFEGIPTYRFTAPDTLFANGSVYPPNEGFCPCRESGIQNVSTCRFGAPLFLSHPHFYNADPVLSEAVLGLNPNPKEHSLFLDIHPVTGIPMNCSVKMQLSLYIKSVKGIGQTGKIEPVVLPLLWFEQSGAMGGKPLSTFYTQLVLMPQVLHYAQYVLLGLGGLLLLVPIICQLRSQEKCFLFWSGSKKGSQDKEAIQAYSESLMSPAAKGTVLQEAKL
# The entries are a selection whose mix differs from that of the whole data set. Some of these compounds have results that are not shown, active ones among them. The source made the active and inactive calls.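 The calls were made as follows: active = mean replicate inhibition of at least 70% and a set share of replicates each scoring 70 or more; inconclusive = meets just one of the two criteria; inactive = fails both criteria.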
# Target: Scavenger receptor class B member 1 (Mus musculus) (UniProt Q61009)
# Assay: mouse SR-BI DiI-HDL uptake blockers – ldlA[mSR-BI] cells, fluorescence, single point, primary screen (AID 488896);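 also: 0% = median of neutral control wells and 100% = median of positive control wells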
# Conditions: ldlA[mSR-BI] CHO cells, 3 h, at 12.5 µM, active compounds read high
row,Compound,inhibition
1,O=C(OC1CN2CCC1CC2)C(CO)(c1ccccc1)c1ccccc1 (configuration not stated),inactive: -29%
2,CN(C)c1cccc(C(=O)NCC2(N(C)C)CCCCC2)c1,inactive: -36.6%
3,O=C(OCCN1CCCC1)C(O)(c1ccccc1)c1ccccc1,inactive: 1.28%
4,CC(C)Oc1ccc(C(=O)NCC2(N(C)C)CCCCC2)cc1,inactive: 7.08%
5,CN(C)C1(CNC(=O)c2ccc(Br)cc2)CCCCC1,inactive: -54.8%
6,COc1cc(C(=O)NCC2(N(C)C)CCCCC2)c([N+](=O)[O-])cc1OC,inactive: -6.86%
7,COc1ccc(Cl)cc1C(=O)NCC1(N(C)C)CCCCC1,inactive: -0.252%
8,COc1cccc(C(=O)NCC2(N3CCCCC3)CCCCC2)c1,inactive: -2.95%
9,CN(C)c1ccc(C(=O)NCC2(N(C)C)CCCCC2)cc1,inactive: 10.3%
10,CN(C)C1CCCC1OC(=O)C(O)(c1ccccc1)c1ccccc1 (configuration not stated),inactive: -9.34%
11,Cc1ccccc1C(=O)NCC1(N2CCCCC2)CCCCC1,inactive: -12.3%
12,O=C(NCC1(N2CCCCC2)CCCCC1)c1cc(F)c(F)cc1Cl,inactive: -0.523%
13,C=CCN1CCN(CCOC(=O)C(O)(c2ccccc2)c2ccccc2)CC1,inactive: -5.79%
14,CCN1CCCC(OC(=O)C2(O)c3ccccc3C=Cc3ccccc32)C1 (configuration not stated),inactive: -37.4%
15,Cc1cc(C(=O)NCC2(N3CCCCC3)CCCCC2)ccc1[N+](=O)[O-],inactive: 3.18%
16,COc1ccc(C(=O)NCC2(N(C)C)CCCCC2)cc1,inactive: -20.7%
17,O=C(NCC1(N2CCCCC2)CCCCC1)c1cc([N+](=O)[O-])ccc1Cl,inactive: -13.3%
18,CN1[C@@H]2CC[C@H]1CC(OC(=O)C(O)(c1ccccc1)c1ccccc1)C2 (some centres not stated),inactive: -12.2%
19,CC(C)N1C(=O)CC2(CCN(CCOC(=O)C(O)(c3ccccc3)c3ccccc3)CC2)C1=O,inactive: -18.6%
20,COc1cc(SC)ccc1C(=O)NCC1(N(C)C)CCCCC1,inactive: -25.3%
21,CCN(CC)CC(C)C(C)OC(=O)C(O)(c1ccccc1)c1ccccc1 (configuration not stated),inactive: -10.9%
22,Cc1ccc(C(=O)NCC2(N3CCCCC3)CCCCC2)cc1,inactive: -18%
